Test system: Sphaerotheca friliginea
Experiment: Effect of controlling cucumber powdery mildew, Experimental Example 4
Conditions: in vivo
Method: 10 ml of each of test liquids diluted to a predetermined concentration was sprayed over seedlings of a cucumber plant (variety: Sagami Hanpaku) grown up to the first leaf stage which has been soil cultured in an unglazed pot with a diameter of 9 cm in a green house. After allowing to stand overnight, the seedlings were sprayed for inoculation with a spore suspension of Sphaerotheca friliginea. Ten days after the inoculation, the rate of a lesion area (%) was checked and a control value was evaluated from the following equation. The degree of chemical injury against a cucumber plant was determined in the same manner as in Experimental Example.

`Cc1cc(Oc2ccc(Cl)c(Cl)c2)nc(-n2nc(C)cc2C)n1` [Compound 24] showed a Control value of 80%.

— patent publication US4405743A, “Pyrazolylpyrimidine derivatives” (Hokko Chemical Industry Co., Ltd., priority 1981, dated 1983)
